{
  "source": "ChEMBL document CHEMBL5344473",
  "about": "“Inhibition of N-type calcium channels by phenoxyaniline and sulfonamide analogues” (RSC Med Chem, 2024)",
  "test_system": "COS-7",
  "settings": "chlorocebus aethiops, cos-7, 20 h",
  "data": [
    {"smiles": "FC(F)(F)c1ccc(Oc2ccccc2NCc2ccc(OCCCN3CCCC3)cc2)cc1", "values": [
      {"measurement": "CC50", "value": 30, "unit": "µM"}
    ]}
  ]
}
